From ChEMBL document CHEMBL5375987, “Structural Fusion of Natural and Synthetic Ligand Features Boosts RXR Agonist Potency” (J Med Chem, 2023)

The chains behind the UniProt entries cited, without tags or fusion partners. Where a name states a change or a piece, a line headed by the entry shows the natural chain unless it says otherwise.
UniProt P10276, whole entry: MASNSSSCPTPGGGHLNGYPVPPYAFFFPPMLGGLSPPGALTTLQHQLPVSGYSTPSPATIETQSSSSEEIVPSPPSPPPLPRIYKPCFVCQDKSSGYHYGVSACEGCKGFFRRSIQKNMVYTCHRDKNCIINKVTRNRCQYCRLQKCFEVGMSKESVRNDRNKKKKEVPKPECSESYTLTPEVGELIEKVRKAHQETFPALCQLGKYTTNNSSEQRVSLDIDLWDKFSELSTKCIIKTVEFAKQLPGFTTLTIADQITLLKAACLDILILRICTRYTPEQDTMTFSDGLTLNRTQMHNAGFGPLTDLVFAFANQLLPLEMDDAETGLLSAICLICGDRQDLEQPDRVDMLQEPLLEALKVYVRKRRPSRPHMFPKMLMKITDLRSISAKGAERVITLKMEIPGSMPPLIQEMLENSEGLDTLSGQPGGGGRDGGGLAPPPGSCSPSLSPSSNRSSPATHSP
UniProt Q9Y466: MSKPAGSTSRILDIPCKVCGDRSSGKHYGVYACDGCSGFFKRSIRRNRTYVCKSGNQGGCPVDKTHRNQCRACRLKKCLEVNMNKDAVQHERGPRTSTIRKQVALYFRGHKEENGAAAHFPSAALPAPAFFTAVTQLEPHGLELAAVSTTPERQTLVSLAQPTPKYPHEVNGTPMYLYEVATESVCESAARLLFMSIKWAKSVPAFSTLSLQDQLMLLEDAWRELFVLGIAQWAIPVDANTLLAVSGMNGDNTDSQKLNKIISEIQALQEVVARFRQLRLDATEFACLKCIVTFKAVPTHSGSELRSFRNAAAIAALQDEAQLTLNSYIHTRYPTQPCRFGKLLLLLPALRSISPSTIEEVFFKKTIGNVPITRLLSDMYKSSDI
UniProt P13631, whole entry: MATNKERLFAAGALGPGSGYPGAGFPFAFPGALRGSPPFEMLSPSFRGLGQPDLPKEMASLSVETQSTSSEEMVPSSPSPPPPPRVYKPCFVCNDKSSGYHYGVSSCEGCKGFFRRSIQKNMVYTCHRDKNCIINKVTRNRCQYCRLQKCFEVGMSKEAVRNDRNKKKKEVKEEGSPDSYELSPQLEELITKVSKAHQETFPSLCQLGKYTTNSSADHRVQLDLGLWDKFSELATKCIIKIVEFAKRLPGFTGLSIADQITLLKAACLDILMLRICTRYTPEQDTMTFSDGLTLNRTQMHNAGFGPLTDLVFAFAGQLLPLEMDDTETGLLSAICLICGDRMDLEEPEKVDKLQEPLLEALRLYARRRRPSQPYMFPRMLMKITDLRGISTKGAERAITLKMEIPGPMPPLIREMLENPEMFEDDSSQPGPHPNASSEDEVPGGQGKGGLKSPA

Experiments:
[1] = target: Retinoic acid receptor alpha (Homo sapiens) (UniProt P10276); assay: Antagonist activity at NR1B1 (unknown origin) at 1 uM
[2] = target: T1, Peroxisome proliferator-activated receptor alpha (Homo sapiens) (UniProt Q07869); assay: Inverse agonist activity at NR1C1 (unknown origin) at 1 uM
T1 sequence (whole entry): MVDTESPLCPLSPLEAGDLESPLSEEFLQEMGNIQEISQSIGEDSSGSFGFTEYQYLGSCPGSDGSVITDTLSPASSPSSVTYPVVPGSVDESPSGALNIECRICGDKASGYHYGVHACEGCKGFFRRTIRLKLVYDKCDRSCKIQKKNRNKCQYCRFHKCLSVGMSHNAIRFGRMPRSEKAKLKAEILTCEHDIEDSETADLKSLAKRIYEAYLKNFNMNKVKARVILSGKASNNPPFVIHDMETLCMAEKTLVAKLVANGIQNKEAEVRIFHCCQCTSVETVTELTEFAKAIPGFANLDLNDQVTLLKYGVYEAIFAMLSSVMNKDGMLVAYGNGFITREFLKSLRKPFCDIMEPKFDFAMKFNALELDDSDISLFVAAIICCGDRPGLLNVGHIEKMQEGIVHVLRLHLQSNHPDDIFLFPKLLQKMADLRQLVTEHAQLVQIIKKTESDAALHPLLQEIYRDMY

[3] = target: T2, Nuclear receptor subfamily 2 group C member 1 (Homo sapiens) (UniProt P13056); assay: Antagonist activity at NR2C1 (unknown origin) at 1 uM
T2 sequence (whole entry): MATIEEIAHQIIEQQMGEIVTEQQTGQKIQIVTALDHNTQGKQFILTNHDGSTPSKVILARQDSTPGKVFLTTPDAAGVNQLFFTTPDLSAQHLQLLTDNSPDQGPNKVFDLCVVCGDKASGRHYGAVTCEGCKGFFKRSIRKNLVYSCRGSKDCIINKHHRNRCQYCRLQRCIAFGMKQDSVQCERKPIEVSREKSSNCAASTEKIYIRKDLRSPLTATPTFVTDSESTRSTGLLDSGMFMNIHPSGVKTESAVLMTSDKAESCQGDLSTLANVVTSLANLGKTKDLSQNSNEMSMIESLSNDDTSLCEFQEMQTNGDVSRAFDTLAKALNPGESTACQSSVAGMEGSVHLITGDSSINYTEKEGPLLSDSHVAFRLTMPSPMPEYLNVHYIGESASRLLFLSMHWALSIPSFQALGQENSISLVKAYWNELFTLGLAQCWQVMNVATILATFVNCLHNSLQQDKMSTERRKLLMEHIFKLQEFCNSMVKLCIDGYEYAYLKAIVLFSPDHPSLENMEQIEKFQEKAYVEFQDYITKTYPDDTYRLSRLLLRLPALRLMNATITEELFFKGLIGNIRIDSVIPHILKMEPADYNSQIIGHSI

[4] = target: Nuclear receptor subfamily 2 group E member 1 (Homo sapiens) (UniProt Q9Y466); assay: Antagonist activity at NR2E1 (unknown origin) at 1 uM
[5] = target: T2, Nuclear receptor subfamily 2 group C member 1 (Homo sapiens); assay: Agonist activity at NR2C1 (unknown origin) at 1 uM
[6] = target: T1, Peroxisome proliferator-activated receptor alpha (Homo sapiens); assay: Agonist activity at NR1C1 (unknown origin) at 1 uM
[7] = target: Retinoic acid receptor gamma (Homo sapiens) (UniProt P13631); assay: Inverse agonist activity at NR1B3 (unknown origin) at 1 uM
[8] = target: T3, Bile acid receptor (Homo sapiens) (UniProt Q96RI1); assay: Antagonist activity at NR1H4 (unknown origin) at 1 uM
T3 sequence (whole entry): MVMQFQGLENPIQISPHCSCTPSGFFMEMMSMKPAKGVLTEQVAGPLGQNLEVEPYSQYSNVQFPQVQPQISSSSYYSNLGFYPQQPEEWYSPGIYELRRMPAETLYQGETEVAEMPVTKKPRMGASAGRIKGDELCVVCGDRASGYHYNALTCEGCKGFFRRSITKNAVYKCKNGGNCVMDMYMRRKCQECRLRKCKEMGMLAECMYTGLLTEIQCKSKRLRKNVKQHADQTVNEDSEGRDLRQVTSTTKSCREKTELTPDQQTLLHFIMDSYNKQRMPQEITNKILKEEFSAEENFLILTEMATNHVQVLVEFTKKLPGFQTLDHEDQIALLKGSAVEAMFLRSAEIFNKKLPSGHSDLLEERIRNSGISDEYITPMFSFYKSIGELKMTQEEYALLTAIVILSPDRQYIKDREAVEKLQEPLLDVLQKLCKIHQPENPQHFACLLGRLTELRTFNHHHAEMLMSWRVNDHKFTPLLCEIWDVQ

[9] = target: Retinoic acid receptor alpha (Homo sapiens) (UniProt P10276); assay: Agonist activity at NR1B1 (unknown origin) at 1 uM

Measured: Activity

O=C(O)[C@@H]1C[C@H]1c1nc(-c2ccccc2)c(-c2cc(C(F)(F)F)cc(C(F)(F)F)c2)o1 (racemic)
inactive: [1] | [2] | [3] | [4] | [5] | [6] | [7] | [8] | [9]

Calls of active or inactive are those of the source.
